By UniProt entry, the sequences of proteins in these tests, tags left out. Where a name states a change or a piece, a line headed by the entry shows the natural chain unless it says otherwise.
UniProt P41146: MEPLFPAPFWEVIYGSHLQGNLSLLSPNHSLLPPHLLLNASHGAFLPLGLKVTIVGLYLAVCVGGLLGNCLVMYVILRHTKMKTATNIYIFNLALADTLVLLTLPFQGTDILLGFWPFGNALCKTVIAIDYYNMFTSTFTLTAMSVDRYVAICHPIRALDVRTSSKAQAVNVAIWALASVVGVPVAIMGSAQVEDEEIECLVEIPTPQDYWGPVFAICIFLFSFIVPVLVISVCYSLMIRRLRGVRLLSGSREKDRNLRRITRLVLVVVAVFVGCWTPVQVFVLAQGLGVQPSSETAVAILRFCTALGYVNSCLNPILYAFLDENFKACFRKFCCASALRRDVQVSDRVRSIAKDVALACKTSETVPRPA
UniProt P35372, whole entry, looked up: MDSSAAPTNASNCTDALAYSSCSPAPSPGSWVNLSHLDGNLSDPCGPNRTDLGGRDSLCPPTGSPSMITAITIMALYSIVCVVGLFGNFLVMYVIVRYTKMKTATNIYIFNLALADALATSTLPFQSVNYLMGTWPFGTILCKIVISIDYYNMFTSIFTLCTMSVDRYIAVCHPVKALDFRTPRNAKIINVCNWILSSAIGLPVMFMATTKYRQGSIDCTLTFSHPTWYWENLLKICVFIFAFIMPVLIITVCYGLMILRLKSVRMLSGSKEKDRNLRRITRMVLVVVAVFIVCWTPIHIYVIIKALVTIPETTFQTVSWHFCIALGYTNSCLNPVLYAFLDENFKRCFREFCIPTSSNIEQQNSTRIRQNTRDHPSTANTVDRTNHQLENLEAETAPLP

According to patent US10807988B2, “3-((hetero-)aryl)-8-amino-2-oxo-1,3-diaza-spiro-[4.5]-decane derivatives” (dated 2020):

What follows are molecules tested against human nociceptin/orphanin FQ peptide (hNOP) receptor (Homo sapiens (Human), UniProt P41146) (assay: not given). Settings: read-out: hNOP Ki.

Question: Which Ki does the source give for `CN(C)[C@]1(c2ccccc2)CC[C@]2(CC1)CN(c1cnc(C#N)nc1)C(=O)N2CCO` here?
Answer: 0.237 µM

Question: `CN(C)[C@]1(c2ccccc2)CC[C@]2(CC1)CN(c1cnc(-c3cccc(C#N)c3)nc1)C(=O)N2` was tested. Which Ki did it give?
Answer: 0.006 µM

Question: For `CN(C)[C@]1(c2ccccc2)CC[C@]2(CC1)CN(c1cnc(N3CCN(S(C)(=O)=O)CC3)nc1)C(=O)N2`, which Ki is on record?
Answer: 0.013 µM

Question: Which Ki does the source give for `CN(C)[C@]1(c2ccccc2)CC[C@]2(CC1)CN(c1ccc(S(C)(=O)=O)cc1)C(=O)N2CC1CC1` here?
Answer: 0.002 µM

Each molecule was assayed against human mu-opioid peptide (hMOP) receptor (Homo sapiens (Human), UniProt P35372) (assay: Human mu-opioid peptide (hMOP) receptor binding assay (SPA, [3H]naloxone displacement)). Settings: at 1 μM.

Question: For `CN(C)[C@]1(c2ccccc2)CC[C@]2(CC1)CN(c1cnc(-c3ccccc3C#N)nc1)C(=O)N2`, which “hMOP % inhibition at 1 μM” value is on record?
Answer: 25%

Question: Which “hMOP % inhibition at 1 μM” value does the source give for `CN(C)[C@]1(c2ccccc2)CC[C@]2(CC1)CN(c1cnc(-c3ccc(C(N)=O)cc3)nc1)C(=O)N2` here?
Answer: 23%

Question: Which “hMOP % inhibition at 1 μM” value does the source give for `CN(C)[C@]1(c2ccccc2)CC[C@]2(CC1)CN(c1cnc(NC(=O)C3CC3)nc1)C(=O)N2` here?
Answer: 17%

Question: Which “hMOP % inhibition at 1 μM” value does the source give for `CN(CC1CC1)[C@]1(c2ccccc2)CC[C@]2(CC1)CN(c1cnc(C(F)(F)F)nc1)C(=O)N2` here?
Answer: 6%

Question: How did the “hMOP % inhibition at 1 μM” value turn out when `Cn1nc(C(F)(F)F)cc1N1C[C@]2(CC[C@](c3cccc(F)c3)(N(C)C)CC2)NC1=O` was run?
Answer: 15%

Same assay, conditions: read-out: hMOP Ki

Question: For `CN(C)[C@]1(c2ccccc2)CC[C@]2(CC1)CN(c1ccc(S(C)(=O)=O)cc1)C(=O)N2CC1CC1`, which Ki is on record?
Answer: 0.097 µM
